Drawing on patent US20250388584A1, “TPK AGONIST AND METHOD FOR TREATING NEURODEGENERATIVE DISEASES USING SAME” (SHANGHAI RAISING PHARMACEUTICAL CO., LTD., priority 2022, published 2025), this text covers EC50 for one molecule.

Protein sequences, listed by entry. Tags and fused reporters are not part of them. Lines headed by an entry give the natural chain unless they say otherwise; changes in a name come on top.
UniProt Q9H3S4: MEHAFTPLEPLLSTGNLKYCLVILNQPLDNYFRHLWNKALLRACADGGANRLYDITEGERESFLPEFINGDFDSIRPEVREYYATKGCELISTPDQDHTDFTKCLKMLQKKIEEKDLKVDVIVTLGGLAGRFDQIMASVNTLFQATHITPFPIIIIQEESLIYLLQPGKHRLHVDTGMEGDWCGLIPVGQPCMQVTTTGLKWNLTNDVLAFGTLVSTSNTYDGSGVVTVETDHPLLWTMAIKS

This experiment concerns the target TPK enzyme (Homo sapiens (Human), UniProt Q9H3S4). Description: TPK enzyme activity test. Type of experiment: biochemical. To be noted: promoting effect on TPK enzyme activity.

As to `Cc1ccc2[nH]c3c(=O)n(CCC(=O)NCCN(C)c4cccc5c4CCCC5)cnc3c2c1` [Compound 130, N-(2-(methyl(5,6,7,8-tetrahydronaphthalen-1-yl)amino)ethyl)-3-(8-methyl-4-oxo-4,5-dihydro-3H-pyrimido[5,4-b]indol-3-yl)propanamide], the concentration for a half-maximal effect (EC50) was found to be 1.36 µM.

The term EC50 denotes the concentration giving half of the maximal effect.
